Values quoted from earlier work as cited in publication PMC7822029, “Nanoparticles Based on Quaternary Ammonium Chitosan-methyl-β-cyclodextrin Conjugate for the Neuropeptide Dalargin Delivery to the Central Nervous System: An In Vitro Study” (Pharmaceutics, 2020).

System: Caco-2 monolayers
Conditions: cited from earlier work
Description: The in vitro DAL-NP permeation studies were carried out with Caco-2, which are widely used to simulate the intestinal environment in studies of oral formulations, and the bEnd.3 brain murine endothelioma cell line to simulate the BBB [24, 25]. Toxic effects of formulations were determined to select the highest peptide/carrier concentration tolerated for the permeation tests (Figure 4). As it was reported, the Leu-enkephalin transport across Caco-2 monolayers corresponds to zero value of apparent permeability. This value, in line with the data in Figure 3, was related to a rapid diges ...

## Leu-enkephalin: parent enkephalin peptide, literature Caco-2 transport
  apparent permeability across Caco-2 monolayers: zero value
